Assay: Solubility in simulated fluids and water
Conditions: 37° C.

Substance: N-[(3S)-1-azabicyclo[2.2.2]octan-3-yl]-6-(2-ethoxyphenyl)-3-[(2R)-2-ethyl-4-[1-(trifluoromethyl)-cyclobutanecarbonyl]piperazin-1-yl]pyridine-2-carboxamide mandelate [mandelate Pattern E]
- Solubility (FaSSGF, 30 min): >1690 µg/mL
- Solubility (FaSSGF, 24 h): >1740 µg/mL
- Solubility (FaSSIF, 30 min): 1190 µg/mL
- Solubility (FaSSIF, 24 h): 1380 µg/mL
- Solubility (FeSSIF, 30 min): >2200 µg/mL
- Solubility (FeSSIF, 24 h): >2130 µg/mL
- Solubility (water, 30 min): 2520 µg/mL
- Solubility (water, 24 h): >2170 µg/mL

Reference: patent US20240208963A1, “CRYSTALLINE MELANOCORTIN SUBTYPE-2 RECEPTOR (MC2R) ANTAGONIST” (Crinetics Pharmaceuticals, Inc., priority 2022, published 2024)
